{"source": "patent US11617777B2", "about": "“Cytotoxic and anti-mitotic compounds, and methods of using the same” (ZYMEWORKS BC INC., priority 2013, dated 2023)", "assay_type_in_all_cases": "cell-based", "key": {"[1]": {"tested_on": "Jurkat cells", "test": "Cytotoxicity of compounds, CellTiter-Glo", "conditions": "Homo sapiens", "description": "Cell lines used: Human T-cell leukemia cell line Jurkat (ATCC: TIB-152); HCC1954 (ATCC: CRL. 2338); Human Pancreatic cells lines: AsPC-1 (ATCC: CRL-1682), BxPC-3 (ATCC: CRL.1687), HPAF-II (ATCC: CRL.1997), MiaPaCa2 (ATCC: CRL.1420), PANC-1 (ATCC: CRL.1469), Capan-1 (ATCC: HTB-79), Capan-2 (ATCC: HTB-80) and the Human gastric carcinoma cell line NCI-N87 (ATCC: CRL. 5822); AML-193 (ATCC: CRL.9589), CCRF-CEM (ATCC: CCL-119), DU145 (ATCC: HTB-81), PC-3 (ATCC: CRL.1435), A-431 (ATCC: CRL.1555), HT-29 (ATCC: HTB-38), A-172 (ATCC: CRL.1620), NCI-H358 (ATCC: CRL.5807), A549 (ATCC: CCL-185), Colo-205 (ATCC: CCL-222), MDA-MB-231 (ATCC: HTB-26), OVCAR-3 (ATCC: HTB-161), OV-90 (ATCC: CRL.11732), OE19 (Sigma: 96071721), RT 112/84 (Sigma: 85061106).\n(§1) On the day prior to adding compounds, HCC1954 AsPC-1, BxPC-3, HPAF-II, MiaPaCa2, PANC-1, Capan-1, Capan-2 and NCI-N87 cells were added to opaque-walled 96-well tissue culture-treated microtiter plates using complete growth medium at a density of 2500 cells/100 microlitre (uL) of medium. […] After the incubation, cell viability is measured using CellTiter-Glo® reagent by adding thirty uL of prepared CellTiter-Glo® to each assay well. The assay is incubated for at least twenty minutes in the dark prior to measuring emitted luminescence using a microplate luminometer (500 ms integration time). […]"}, "[2]": {"tested_on": "A549", "test": "Cytotoxicity on various cell lines", "conditions": "Homo sapiens, Table 8", "experimental": "(§2) FIG. 1 summarizes the data for compounds A, B, C, D, and E when tested using the Human mammary carcinoma cell line HCC1954 or Human T-cell leukemia cell line Jurkat. FIGS. 2-6 show the cytotoxicity data plots for individual compounds A-E. Tables 2-6 summarize the results of additional cytotoxicity assays. […]\nas §1, with “time). The collected relative luminescence units (RLU) are converted to % cytotoxicity using the Growth medium alone control mentioned above (% Cytotoxicity=1−[Well RLU/average medium alone control RLU]).” for “time).”"}, "[3]": {"tested_on": "HCC1954 cells", "test": "Cytotoxicity of compounds, CellTiter-Glo", "conditions": "Homo sapiens; Table 1; HCC1954 cells (HER2+), three nights", "experimental": "as §2\nas §1, with “time). The collected relative luminescence units (RLU) are converted to % cytotoxicity using the Growth medium alone control mentioned above (% Cytotoxicity=1−[Well RLU/average medium alone control RLU]).” for “time).”"}, "[4]": {"tested_on": "HCC1954 cells", "test": "Cytotoxicity assay of SMCC- and LC-SPDP-linked ADCs and free compounds", "conditions": "Homo sapiens, HCC1954, Table 10, Coupling #2, read-out: HCC1954 Best-fit EC50", "experimental": "The purified ADCs were then analysed for: total protein content (BCA assay, Pierce microBCA protocol), relative affinity for antigen binding (equilibrium native binding), and selective cytotoxic killing of HER2-positive cells (HCC1954) compared HER2-negative cells (Jurkat).\nOn the day prior to adding test articles, HCC1954 cells were added to opaque-walled 96-well tissue culture-treated microtiter plates using complete growth medium at a density of 2500 cells/100 microlitre (uL) of medium. The HCC1954 cells were incubated for one night at 37° C./5% CO2 to allow the cells to attach to the microtiter plate surface. On the day that test articles were added, Jurkat cells are added to separate 96-well microtiter plates at 2500 cells/100 uL using the same growth medium as HCC1954. […] After the incubation, cell viability was measured using CellTiter-Glo® reagent by adding thirty uL of prepared CellTiter-Glo® to each assay well. The assay was incubated for at least twenty minutes in the dark prior to measuring emitted luminescence using a microplate luminometer (500 ms integration time). The collected relative luminescence units (RLU) were converted to % cytotoxicity using the Growth medium alone control mentioned above (% Cytotoxicity=1−[Well RLU/average medium alone control RLU])."}}, "data": [{"smiles": "CN[C@H](C(=O)N[C@H](C(=O)N(C)[C@H](/C=C(\\C)C(=O)NS(=O)(=O)c1ccc(C(=O)OC)cc1)C(C)C)C(C)(C)C)C(C)(C)c1ccccc1", "note": "[Compound 31, methyl 4-(N—((S,E)-2,5-dimethyl-4-((S)—N,3,3-trimethyl-2-((S)-3-methyl-2-(methylamino)-3-phenylbutanamido)butanamido)hex-2-enoyl)sulfamoyl)benzoate]", "values": [{"measurement": "EC50", "setting": "[1]; Table 3, Cytotoxicity of Compounds on Jurkat Cells", "result": 0.094, "unit": "nM"}]}, {"smiles": "CN[C@H](C(=O)N[C@H](C(=O)N(C)[C@H](/C=C(\\C)C(=O)NS(=O)(=O)Cc1ccccc1)C(C)C)C(C)(C)C)C(C)(C)c1ccccc1", "note": "[Compound 14, (S,E)-N-(benzylsulfonyl)-2,5-dimethyl-4-((S)—N,3,3-trimethyl-2-((S)-3-methyl-2-(methylamino)-3-phenylbutanamido)butanamido)hex-2-enamide]", "values": [{"measurement": "EC50", "setting": "[2]", "result": 0.86, "unit": "nM"}, {"measurement": "EC50", "setting": "[1]; Table 8", "result": 0.068, "unit": "nM"}]}, {"smiles": "CN[C@H](C(=O)N[C@H](C(=O)N(C)[C@H](/C=C(\\C)C(=O)NS(=O)(=O)c1ccc(C)cc1)C(C)C)C(C)(C)C)C(C)(C)c1ccccc1", "note": "[Compound D, (S,E)-2,5-dimethyl-N-tosyl-4-((S)—N,3,3-trimethyl-2-((S)-3-methyl-2-(methylamino)-3-phenylbutanamido)butanamido)hex-2-enamide]", "values": [{"measurement": "EC50", "setting": "[3]", "result": 0.061, "unit": "nM"}]}, {"smiles": "CN[C@H](C(=O)N[C@H](C(=O)N(C)[C@H](/C=C(\\C)C(=O)NS(=O)(=O)CCCS)C(C)C)C(C)(C)C)C(C)(C)c1ccccc1", "note": "[Compound A, (S,E)-N-(3-mercaptopropylsulfonyl)-2,5-dimethyl-4-((S)—N,3,3-trimethyl-2-((S)-3-methyl-2-(methylamino)-3-phenylbutanamido)butanamido)hex-2-enamide]", "values": [{"measurement": "EC50", "setting": "[3]", "result": 0.86, "unit": "nM"}, {"measurement": "EC50", "setting": "[4]", "result": 0.86, "unit": "nM"}]}]}
